From publication PMC5830615 (Scientific Reports, 2018)

Sequences of proteins named here, by UniProt entry; tags and fusion partners are left off.
UniProt P49146, whole entry: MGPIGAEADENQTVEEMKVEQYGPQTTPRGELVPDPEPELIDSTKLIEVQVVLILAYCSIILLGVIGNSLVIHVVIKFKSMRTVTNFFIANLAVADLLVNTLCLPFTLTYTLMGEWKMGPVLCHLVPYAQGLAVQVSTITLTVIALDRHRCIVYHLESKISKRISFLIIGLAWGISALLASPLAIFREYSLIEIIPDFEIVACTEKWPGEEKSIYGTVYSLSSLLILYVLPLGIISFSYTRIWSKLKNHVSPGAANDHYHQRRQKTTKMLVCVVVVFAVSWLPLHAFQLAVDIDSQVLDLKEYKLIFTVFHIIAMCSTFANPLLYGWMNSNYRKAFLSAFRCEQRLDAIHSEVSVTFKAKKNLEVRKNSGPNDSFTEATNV

What was measured:
human NPY2R [1] = target: T1, human NPY2R (Homo sapiens, UniProt P49146); test: FRET assay, inhibition of forskolin-stimulated cAMP production in HEK293-H188-C24 cells transfected with human NPY2R; assay type: cell-based; conditions: forskolin 2 μM + IBMX 100 μM; PYY(1–36) at 3,000 nM
T1 construct: 3xHA (own knowledge: 'TN' in the cDNA Resource Center clone ID denotes an N-terminal 3xHA tag); host or cells: HEK293-H188-C24 (transient transfection, pcDNA3.1)
Experimental: Transient transfections were performed using Lipofectamine and Plus Reagent (Thermo Fisher) using methodology described previously by our laboratory for HEK293 cells. […] Plasmid encoding human NPY2R (I.D. NPYR20TN00) in pcDNA3.1 was from the University of Missouri-Rolla cDNA Resource Center (Rolla, MO). Individual clones of HEK293 cells stably expressing select FRET reporters were obtained by G418 antibiotic resistance selection, as described previously. Adenovirus for transduction of HEK293 cells with H188 was generated by a commercial vendor (ViraQuest, North Liberty, IA) using the shuttle vector pVQAd CMV K-NpA and the H188 plasmid originally created by Klarenbeek and co-workers[30].
HEK293-H188-C24 cells stably expressing H188 were plated at 80% confluence on 96-well clear-bottom assay plates (Costar 3904, Corning, NY) coated with rat tail collagen (Collaborative Biomedical Products, Bedford, MA). […] Real-time kinetic assays of FRET were performed using a FlexStation 3 microplate reader equipped with monochromators (Molecular Devices, Sunnyvale, CA). Excitation light was delivered at 435/9 nm (455 nm cut-off), and emitted light was detected at 485/15 nm (CFP) or 535/15 nm (YFP)[31],[34]–[36]. […]

human NPY2R [2] = target: T1, human NPY2R; test: Fura-2 assay of cytosolic [Ca2+] in HEK293 cells transfected with NPY2R; assay type: cell-based; conditions: Fura-2, 96-well, compared with carbachol and ATP

Substance: PYY(1–36)
- Effect on forskolin-stimulated cAMP production in presence of IBMX (human NPY2R [1]): nearly identical findings
- Ability to raise cytosolic [Ca2+] (human NPY2R [2]): weak
